This is a selection; strong and weak results do not stand in their true shares. Calls of active or inactive are those of the source. No stated cut-off is given here; in the data, active means activation above about 11%; inactive means the rest.
Biological target: Sphingosine 1-phosphate receptor 4 (Homo sapiens) (UniProt O95977)
Test: activators of human S1P4 receptor – cell-based, primary screen (AID 1509);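 further: 0% = DMSO vehicle and 100% = reference agonist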
Details: S1P4-expressing cell line, agonist reporter assay; at 4.98 µM; active compounds read high

Amino acid sequences for entries named in this document (tags omitted).
UniProt O95977, whole entry: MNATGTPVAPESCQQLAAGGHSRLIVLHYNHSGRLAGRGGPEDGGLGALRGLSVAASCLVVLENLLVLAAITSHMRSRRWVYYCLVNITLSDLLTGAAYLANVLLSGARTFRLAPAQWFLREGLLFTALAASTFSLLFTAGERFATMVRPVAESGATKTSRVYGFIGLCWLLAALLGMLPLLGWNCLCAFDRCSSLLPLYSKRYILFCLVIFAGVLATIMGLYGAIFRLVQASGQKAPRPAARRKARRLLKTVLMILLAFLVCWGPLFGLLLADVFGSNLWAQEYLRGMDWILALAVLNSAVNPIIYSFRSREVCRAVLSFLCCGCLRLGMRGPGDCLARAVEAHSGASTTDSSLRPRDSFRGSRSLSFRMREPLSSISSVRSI

Row | Compound | activation
1 | CP(=O)(Nc1cccc(Br)c1)Oc1ccccc1 (stereo not given) | inactive: 0.69%
2 | Cc1cc(C)cc(OP(C)(=O)Nc2ccccn2)c1 (stereo not given) | inactive: 1.75%
3 | O=[N+]([O-])c1cc([N+](=O)[O-])c(-n2nnc3ccccc32)c([N+](=O)[O-])c1 | inactive: 1.39%
4 | Cc1nc2ccc3ccccc3c2s1.O=[N+]([O-])c1cc([N+](=O)[O-])c(O)c([N+](=O)[O-])c1 | inactive: -0.7%
5 | CCOC(=O)C(CC)C1=NC(C)(C)Cc2ccccc21.O=[N+]([O-])c1cc([N+](=O)[O-])c(O)c([N+](=O)[O-])c1 (stereo not given) | inactive: 1.4%
6 | O=[N+]([O-])c1cc([N+](=O)[O-])c(Nc2nnnn2CCO)c([N+](=O)[O-])c1 | inactive: -0.49%
7 | CP(=O)(Nc1ccc(SC(F)(F)F)cc1)Oc1ccccc1 (stereo not given) | inactive: -0.64%
8 | CCCOc1ccc(NP(C)(=O)Oc2ccc(Cl)cc2)cc1 (stereo not given) | inactive: -3.54%
9 | COc1ccccc1OP(C)(=O)Nc1c(C)cccc1C (stereo not given) | inactive: -1.48%
10 | CN1CCCCC1COC(=O)C1(O)c2ccccc2CCc2ccccc21 (stereo not given) | inactive: -2.73%
11 | CN(C)CCOC(=O)C(O)(c1ccccc1)C1CCCCC1 (stereo not given) | inactive: -1.54%
12 | COc1ccc(NP(C)(=O)Oc2ccccc2OC)cc1 (stereo not given) | inactive: 1.23%
13 | COc1ccc(OP(C)(=O)Nc2cccc(Br)c2)cc1 (stereo not given) | inactive: 2.71%
14 | O=[N+]([O-])c1ccc(OP2(=O)COCCO2)cc1 (stereo not given) | inactive: -0.25%
15 | Cc1cc(-c2cccc3ccccc23)c(C)cn1.O=[N+]([O-])c1cc([N+](=O)[O-])c(O)c([N+](=O)[O-])c1 | inactive: -2.69%
16 | O=[N+]([O-])c1cc([N+](=O)[O-])c(NCC2CCS(=O)(=O)C2)c([N+](=O)[O-])c1 (stereo not given) | inactive: -1.12%
17 | CCOP(C)(=S)SCC(=O)NC(C)(CC)C(=O)O (stereo not given) | inactive: 2.97%
18 | CP(=O)(Nc1ccc(SC(F)(F)F)cc1)Oc1ccc(F)cc1 (stereo not given) | inactive: -0.32%
19 | Cc1ccccc1NP(C)(=O)Nc1ccccc1C | inactive: 1.45%
20 | CP(=O)(Nc1ccc2c(c1)OCCO2)Oc1ccccc1 (stereo not given) | inactive: 0.56%
21 | CP(=O)(Nc1ccccc1F)Oc1ccccc1 (stereo not given) | inactive: -0.45%
22 | CC(C)c1ccc(OP(C)(=O)Nc2ccc(SC(F)(F)F)cc2)cc1 (stereo not given) | inactive: -1.72%
23 | O=C(OC1CN2CCC1CC2)c1ccc([N+](=O)[O-])cc1 (stereo not given) | inactive: 2.01%
24 | O=C(OCCN1CCN(CCOCc2ccccc2)CC1)C(O)(c1ccccc1)c1ccccc1 | inactive: 2.32%
25 | CCOC(=O)c1ccc(NP(C)(=O)Oc2ccc(F)cc2)cc1 (stereo not given) | inactive: -0.38%
26 | COc1ccc(OP(C)(=O)Nc2ccc(SC(F)(F)F)cc2)cc1 (stereo not given) | inactive: 1.27%
27 | CP(=O)(Nc1ccccc1)Oc1ccc(F)cc1 (stereo not given) | inactive: 0.18%
28 | CCCCCOc1ccc(NP(C)(=O)Oc2ccc(Cl)cc2Cl)cc1 (stereo not given) | inactive: -1.31%

Row | Compound | activation
29 | CCN(CC)CCCOC(=O)C(O)(c1ccccc1)C1CCCCC1 (stereo not given) | inactive: 1.39%
30 | COc1ccccc1OP(C)(=O)Nc1ccc(C)c(C)c1 (stereo not given) | inactive: 0.78%
31 | COc1ccc(OP(C)(=O)Nc2ccccc2Br)cc1 (stereo not given) | inactive: 2.21%
32 | Cc1cc(C)cc(OP(C)(=O)Nc2cccc(C(F)(F)F)c2)c1 (stereo not given) | inactive: 0.14%
33 | CP(=O)(OCCOc1ccccc1)OCCOc1ccccc1 | inactive: -0.72%
34 | CP(=O)(Nc1ccc(Cl)cc1Cl)Oc1ccccc1 (stereo not given) | inactive: -0.67%
35 | Cc1nc2ccc3ccccc3c2o1.O=[N+]([O-])c1cc([N+](=O)[O-])c(O)c([N+](=O)[O-])c1 | inactive: -1.7%
36 | COc1ccc(OP(C)(=O)Nc2ccccn2)cc1 (stereo not given) | inactive: -2.02%
37 | CN(C)CCOC(=O)C(O)(c1ccccc1)C1CCCC1 (stereo not given) | inactive: -3.37%
38 | COc1ccccc1OP(C)(=O)Nc1ccc(Br)cc1 (stereo not given) | inactive: 0.1%
39 | COc1ccccc1OP(C)(=O)Nc1ccc(C)cc1C (stereo not given) | inactive: -2.18%
40 | CP(=O)(Nc1ccccn1)Oc1ccccc1 (stereo not given) | inactive: -0.48%
41 | CCc1ccc(OP(C)(=O)O)cc1 | inactive: -1.96%
42 | O=[N+]([O-])c1cc([N+](=O)[O-])c(Nc2ccccn2)c([N+](=O)[O-])c1 | inactive: -0.63%
43 | Cc1c(NP(C)(=O)Oc2ccc(C(C)C)cc2)c(=O)n(-c2ccccc2)n1C (stereo not given) | inactive: -0.52%
44 | O=C(OCCCN1CCCC1)C(O)(c1ccccc1)C1CCCCC1 (stereo not given) | inactive: 0.76%
45 | COc1ccccc1OP(C)(=O)Nc1c(C)n(C)n(-c2ccccc2)c1=O (stereo not given) | inactive: -0.26%
46 | CCc1ccc(OP(C)(=O)Nc2cccnc2)cc1 (stereo not given) | inactive: -0.19%
47 | CP(=O)(Oc1ccccc1)N1CCOC1=O (stereo not given) | inactive: 0.06%
48 | COc1ccc(OP(C)(=O)Nc2ccc(Br)cc2)cc1 (stereo not given) | inactive: 0.11%
49 | CCN(CC)CC(O)COC(=O)C(O)(c1ccccc1)C1CCCCC1 (stereo not given) | inactive: 1.33%
50 | CN(C)C(=O)c1c([N+](=O)[O-])cc([N+](=O)[O-])cc1[N+](=O)[O-] | inactive: 1.42%
51 | CC(C)(C)c1ccc(OP(C)(=O)O)cc1 | inactive: -0.78%
52 | COc1ccccc1OP(C)(=O)Nc1ccccc1Br (stereo not given) | inactive: -0.8%
53 | CP(=O)(Nc1ccc(Cl)cc1)Oc1ccc(F)cc1 (stereo not given) | inactive: -0.26%
54 | CCOC(=O)c1ccc(NP(C)(=O)Oc2ccc(Cl)cc2)cc1 (stereo not given) | inactive: 0.09%
55 | CP(=O)(OC12CC3CC(CC(C3)C1)C2)OC12CC3CC(CC(C3)C1)C2 | inactive: 3.13%

Source: PubChem BioAssay AID1509 (The Scripps Research Institute Molecular Screening Center, 2009)
